Values of other authors in publication PMC10406941 (Scientific Reports, 2023).

Chains of the proteins cited; added tags and fusions are not shown. Lines headed by an entry give the natural chain unless they say otherwise; changes in a name come on top.
UniProt Q60492, whole entry: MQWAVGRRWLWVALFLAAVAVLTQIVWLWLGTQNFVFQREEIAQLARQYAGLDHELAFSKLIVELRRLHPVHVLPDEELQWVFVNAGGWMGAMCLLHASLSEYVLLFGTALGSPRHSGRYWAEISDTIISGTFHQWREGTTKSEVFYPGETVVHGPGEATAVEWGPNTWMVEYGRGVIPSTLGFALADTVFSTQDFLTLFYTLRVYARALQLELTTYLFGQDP

Target: T1, S1R (Cavia porcellus, UniProt Q60492)
T1 construct: [^3H]-( +)-Pentazocine on guinea pig brain according to the generally accepted protocol; from tissue; host or cells: guinea pig brain
Conditions: Table 1; [3H]-(+)-Pentazocine, guinea pig brain; mean of three experiments in duplicate; cited from earlier work

| SMILES | Ki [nM] |
| --- | --- |
| COc1cccc2c1CCCC2CCCCN1CCN(C2CCCCC2)CC1 (racemic) [Compound 4] | 1.54 |
| Oc1cccc2c1CCCC2CCCN1CCN(C2CCCCC2)CC1 (racemic) [Compound 15] | 5.4 |
